Laboratory results from patent publication US20060079453A1, “Hla binding peptides and their uses” (priority 2002, published 2006).

Tests used:
HLA-A*2902 = HLA-A*2902 (Homo sapiens, UniProt P04439, A270S/D101N/D185E/E176V/E277Q/E87Q/F33T/G231S/H175R/I121M/I218V/I322F/K168Q/L300P/L318F/M331R/P208A/P217A/Q86L/T323A/T345S/V100A/V358M); test: MHC molecular binding / Capture assay, IC50: A*2902; details: read-out: Binding affinity to A*2902 (expressed as an IC50)
HLA-A*3002 = HLA-A*3002 (Homo sapiens, UniProt P04439, D101N/D140H/D185E/E176R/F33S/G80R/H175R/K168Q/Q94H/R138E/R41S/V100E); assay type: binding; details: read-out: Binding affinity to A*3002 (expressed as an IC50)
HLA-A*0101 = HLA-A*0101 (Homo sapiens, UniProt P04439, A114D/A174V/A182V/D101N/D185E/E176A/E190D/L180R/Q94H/R68K/S129P/T187R/V100A/V91M/W191G); details: read-out: Binding affinity to A*0101 (expressed as an IC50)
HLA-DR DRB1*0405 (DR4) = HLA-DR DRB1*0405 (DR4) (Homo sapiens, UniProt P01903+P01911, A100R/A169T/D86S/F76Y/I96L/K127E/L162R/M171V/N62H/P40V/Q125Y/R42H/S133A/S149N/S66Y/V115G/V209L/W38E); test: biochemical; assay type: binding; details: read-out: DRB1 *0405
HLA-DR DRB1*0701 (DR7) = HLA-DR DRB1*0701 (DR7) (Homo sapiens, UniProt P01903+P01911, A100R/A102G/A103Q/D57E/D86V/E43K/F76Y/K127E/L162R/M171V/P40G/Q125H/Q99D/R33Q/R42Y/R54Q/S133A/S66F/T210M/V115G/Y107V/Y59L/Y89S); test: biochemical; assay type: binding; details: read-out: DRB1 *0701
HLA-DR DRB1*0401 (DR4) = HLA-DR DRB1*0401 (DR4) (Homo sapiens, UniProt P01903+P01911, A100K/A169T/F76Y/I96L/K127E/L162R/M171V/N62H/P40V/Q125Y/R42H/S133A/S149N/S66Y/V115G/V209L/W38E); test: biochemical; assay type: binding; details: read-out: DRB1 *0401
HLA-DR DRB1*0901 (DR9) = HLA-DR DRB1*0901 (DR9) (Homo sapiens, UniProt P01903+P01911, A100R/A103E/D57H/D86V/F55Y/F60I/F76Y/I96F/K127E/L162R/M171V/P40D/Q125H/Q99R/R33Q/R42F/S133A/S66N/T210M/V115G/W38K/Y107V/Y59G/Y89S); test: biochemical; assay type: binding; details: read-out: DRB1 *0901

In the case of IMNIILMTLY, the IC50 (HLA-A*2902) is reported as 1.7 nM, the IC50 (HLA-A*3002) is reported as 1.8 nM and the IC50 (HLA-A*0101) is reported as 150 nM.
With ISDYRHIYQY the IC50 (HLA-A*0101) was 28 nM.
For ISDYRHYQY, the IC50 (HLA-A*2902) was 37 nM, the IC50 (HLA-A*3002) was 382 nM and the IC50 (HLA-A*0101) was 13 nM.
Work on LSHFLKEKGGLEGL yielded an IC50 (HLA-DR DRB1*0405 (DR4)) of 2110 nM, an IC50 (HLA-DR DRB1*0701 (DR7)) of 13700 nM and an IC50 (HLA-DR DRB1*0401 (DR4)) of 2440 nM. For the same sequence, the IC50 (HLA-DR DRB1*0901 (DR9)) was 23200 nM.
For LTDLLILRCY, the IC50 (HLA-A*0101) was 64 nM.
With LTDLLIRCY the IC50 (HLA-A*0101) was 13 nM.
LVNSSQPWEPLQLNV showed an IC50 (HLA-DR DRB1*0405 (DR4)) of 19700 nM, an IC50 (HLA-DR DRB1*0401 (DR4)) greater than 21500 nM and an IC50 (HLA-DR DRB1*0901 (DR9)) greater than 78900 nM.
With RFHNIRGRW the IC50 (HLA-A*0101) was 52900 nM.
SSPLENNFY was tested, and the IC50 (HLA-A*0101) was 117 nM.
Work on YSDIIRELRYY yielded an IC50 (HLA-A*0101) of 20 nM.
YSDIRELRYY was tested, and the IC50 (HLA-A*3002) was 456 nM and the IC50 (HLA-A*0101) was 9.4 nM.
